# Values of other authors, collected in patent US20190175515A1, “CHOLESTERYL ESTER VESICLES LOADING PEPTIDES, PROTEINS AND NUCLEIC ACIDS INTO CHYLOMICRONS AND BODY CELLS” (priority 2016, published 2019).
# System: melanoma
# Settings: patients with melanoma; cited from earlier work
substance,measurement,value
high-dose IL-2,overall tumor response (OR) rate,16%
